Measurements taken from US8980916B2, “Factor IXa inhibitors” (Merck Sharp & Dohme Corp., priority 2011, dated 2015).

The chains behind the UniProt entries cited, without tags or fusion partners. Residues count along the entry.
UniProt P00740, 227-461: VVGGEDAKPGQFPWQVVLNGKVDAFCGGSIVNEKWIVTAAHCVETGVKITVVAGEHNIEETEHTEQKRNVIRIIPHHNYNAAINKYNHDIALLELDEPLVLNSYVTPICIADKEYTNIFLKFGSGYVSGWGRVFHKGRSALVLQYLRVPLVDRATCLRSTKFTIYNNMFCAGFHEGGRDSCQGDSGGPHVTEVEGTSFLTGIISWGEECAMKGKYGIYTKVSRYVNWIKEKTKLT
UniProt P00740, 47-191 partner: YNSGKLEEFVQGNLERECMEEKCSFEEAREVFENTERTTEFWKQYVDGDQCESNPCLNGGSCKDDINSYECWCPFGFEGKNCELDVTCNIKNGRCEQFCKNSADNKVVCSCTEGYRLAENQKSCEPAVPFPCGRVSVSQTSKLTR

Biological target: human Factor IXa (Homo sapiens (Human), UniProt P00740)
Assay: Factor IXa enzyme assay (SPECTROFLUOR FIXa fluorogenic substrate)
Assay type: biochemical
Details: human Factor IXa 2.0 μg/ml, SPECTROFLUOR FIXa 100 μM, 60 minutes at room temperature, pH 8.0
Method: Inhibitory activity against Factor IXa was tested using the substrate SPECTROFLUOR FIXa (American Diagnostica Inc.; 500 West Avenue, Stamford, Conn. 06902 USA; Pr. No. 299F) and human Factor IXa (American Diagnostica Inc.; Pr. No. 449b). Test substances dissolved in buffer A (50 mM α,α,α-tris(hydroxymethyl)methylamine (Tris), 100 mM NaCl, 5 mM CaCl2, 15% (v/v) ethylene glycol, pH 8.0) were mixed with Factor IXa (2.0 μg/ml final concentration). The enzyme reaction was started by addition of SPECTROFLUOR FIXa (100 μM final concentration). After incubation for 60 minutes at room temperature, the reaction was stopped by the addition of 20% (v/v) acetic acid solution, and then fluorescence value measured (Excitation Wavelength: 355 nm, Emission Wavelength; 460 nm) in a microtiter plate reader (ARVO 1420 Multilabel Counter; PerkinElmer).
IC50 was calculated from a dilution series of the test substance with the aid of the software, Symix Assay Explorer (Symyx Technologies, Inc.).

- pIC50: 5.07
SMILES: Nc1noc2cc(NC(=O)C(O)c3cccn(-c4ccc(OC(F)(F)F)cc4)c3=O)ccc12 (racemic) [Example 2, (±)-N-(3-aminobenzo[d]isoxazol-6-yl)-2-hydroxy-2-(2-oxo-1-(4-(trifluoromethoxy)phenyl)-1,2-dihydropyridin-3-yl)acetamide]

pIC50: −log10 of the molar value.
